# Laboratory results as given in PubChem BioAssay AID624168 (Sanford-Burnham Center for Chemical Genomics, 2012).
# Only a part is listed here, and it is no random draw. Calls of active or inactive are those of the source.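 The calls were made as follows: active = activation of at least 8% versus controls, or a plate z-score of at least 8; inactive = the rest.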
# Test: compounds raising alpha-dystroglycan glycosylation – uHTS, Pro5-aDG cells, AlphaScreen, primary screen (AID 624168);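 also: Pro5 are CHO cells carrying HIG-tagged alpha-DG that lacks glycosylation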
# Details: alpha-DG glycosylation AlphaScreen (IIH6), at 10 µM, active compounds read high, 0% Pro5, 100% B10-LARGE cell signal
row,Compound,activation
1,O=C(NCC1(N2CCOCC2)CCCCC1)c1cc(=O)[nH]c2ccccc12,inactive: -0.2%
2,COc1cc(C(=O)NCC2(N3CCCCC3)CCCCC2)ccc1OC(F)F,inactive: -0.1%
3,CCCCn1nnnc1C(c1cccc2ccccc12)N1CCC(n2c(=O)[nH]c3ccccc32)CC1 (stereo not drawn),inactive: 0.2%
4,COc1ccc(NC2CCN(C(=O)OC(C)(C)C)CC2)cc1,inactive: -0.4%
5,CC(C)c1ccc(C(=O)NCC2(N3CCOCC3)CCCCC2)cc1,inactive: 0%
6,CN1CCN(CCOC(=O)C(O)(c2ccccc2)c2ccccc2)CC1,inactive: 0.3%
7,O=C(NCC1(N2CCCCC2)CCCCC1)c1cccc(C(F)(F)F)c1,inactive: 0%
8,CCN1CCC(Nc2ccc(Cl)cc2)CC1,inactive: -0.2%
9,N#CC1(Nc2ccccc2)CCN(CCc2ccccc2)CC1,inactive: 0.1%
10,O=c1[nH]c2ccccc2n1C1CCN(C(c2ccccc2OC(F)(F)F)c2nnnn2C2CCCC2)CC1 (stereo not drawn),inactive: -0.4%
11,CSc1ccc(C(=O)NCC2(N3CCOCC3)CCCCC2)cc1,inactive: -0.2%
12,O=C(NCC1(N2CCCCC2)CCCCC1)c1cccc([N+](=O)[O-])c1,inactive: -0.4%
13,CC(C)(C)n1nnnc1C(c1ccccc1OC(F)(F)F)N1CCC(n2c(=O)[nH]c3ccccc32)CC1 (stereo not drawn),inactive: -0.3%
14,O=C(NCC1(N2CCCCC2)CCCCC1)c1ccc(OC(F)F)cc1,inactive: 0%
15,COc1ccc(C(c2nnnn2C2CCCC2)N2CCC(n3c(=O)[nH]c4ccccc43)CC2)cc1 (stereo not drawn),inactive: -0.2%
16,Cc1ccc(C(=O)NCC2(N(C)C)CCCCC2)o1,inactive: -0.1%
17,CCCOc1ccc(C(=O)NCC2(N(C)C)CCCCC2)cc1OC,inactive: -0.1%
18,O=C(NCC1(N2CCCCC2)CCCCC1)c1cncc(Br)c1,inactive: -0.3%
19,CN1CCC(Nc2cccc(F)c2)CC1,inactive: 0%
20,COc1cc(OC)c(C(=O)NCC2(N(C)C)CCCCC2)cc1OC,inactive: -0.2%
21,CCC(c1nnnn1C(C)(C)C)N1CCC(n2c(=O)[nH]c3ccccc32)CC1 (stereo not drawn),inactive: -0.2%
22,O=C(NCC1(N2CCOCC2)CCCCC1)c1cc(F)c(F)cc1Cl,inactive: 0.2%

row,Compound,activation
1,CCCCn1nnnc1C(c1ccnc2ccccc12)N1CCC(n2c(=O)[nH]c3ccccc32)CC1 (stereo not drawn),inactive: -0.1%
2,CC(C)c1ccc(NC2CCN(C(=O)OC(C)(C)C)CC2)cc1,inactive: -0.2%
3,CCCCn1nnnc1C(c1ccccc1OC(F)(F)F)N1CCC(n2c(=O)[nH]c3ccccc32)CC1 (stereo not drawn),inactive: 0.2%
4,COc1ccc(CN(CCCl)CCCl)cc1Cl,inactive: -0.4%
5,CN(C)c1cccc(C(=O)NCC2(N3CCCCC3)CCCCC2)c1,inactive: 0.4%
6,O=c1[nH]c2ccccc2n1C1CCN(C(c2cc3ccccc3o2)c2nnnn2C2CCCCC2)CC1 (stereo not drawn),inactive: 3.1%
7,O=C(OC1CN2CCC1CC2)C1c2ccccc2Oc2ccccc21 (stereo not drawn),inactive: 0.7%
8,N#CC1(Nc2ccccc2)CCN(Cc2ccccc2)CC1,inactive: 0%
9,O=C(NCC1(N2CCCCC2)CCCCC1)c1ccc(Cl)s1,inactive: 0.2%
10,COc1ccc(Cl)cc1C(=O)NCC1(N2CCOCC2)CCCCC1,inactive: -0.2%
11,CCOC(=O)N1CCC(Nc2ccc(OC)cc2)CC1,inactive: 0.6%
12,CCCCn1nnnc1C(c1ccc(OC)cc1)N1CCC(n2c(=O)[nH]c3ccccc32)CC1 (stereo not drawn),inactive: -0.1%
13,O=c1[nH]c2ccccc2n1C1CCN(C(c2ccccc2OC(F)(F)F)c2nnnn2C2CCCCC2)CC1 (stereo not drawn),inactive: -0.4%
14,O=C(NCC1(N2CCCCC2)CCCCC1)c1ccc(Cl)nc1,inactive: -0.3%
15,Cc1cc(C)cc(N(C(=O)c2ccccc2)C2CCN(C(=O)OC(C)(C)C)CC2)c1,inactive: 0.3%
16,O=C(NCC1(N2CCOCC2)CCCCC1)c1cc2ccccc2o1,inactive: -0.1%
17,CSc1ccccc1C(=O)NCC1(N2CCCCC2)CCCCC1,inactive: 0.1%
18,Cc1cccc(NC2(C#N)CCN(Cc3ccccc3)CC2)c1,inactive: -0.1%
19,COc1ccc(C(=O)NCC2(N3CCCCC3)CCCCC2)cc1,inactive: -0.1%
20,CCC(c1nnnn1C1CCCC1)N1CCC(n2c(=O)[nH]c3ccccc32)CC1 (stereo not drawn),inactive: 0%
21,COc1ccc(C(=O)NCC2(N3CCCCC3)CCCCC2)c(OC)c1OC,inactive: 0.1%
22,CC(C)(C)OC(=O)N1CCC(N(C(=O)c2ccccc2)c2ccc(F)cc2)CC1,inactive: 0.1%

row,Compound,activation
1,O=C(NCC1(N2CCCCC2)CCCCC1)c1ccc(=O)[nH]c1,inactive: 0%
2,CCCCn1nnnc1C(c1cccs1)N1CCC(n2c(=O)[nH]c3ccccc32)CC1 (stereo not drawn),active: 6.6%
3,CCCCn1nnnc1C(CC)N1CCC(n2c(=O)[nH]c3ccccc32)CC1 (stereo not drawn),inactive: -0.2%
4,O=C(NCC1(N2CCCCC2)CCCCC1)c1cccs1,inactive: 0%
5,COc1cc(C(=O)NCC2(N(C)C)CCCCC2)ccc1OC(F)F,inactive: -0.1%
6,CCOC(=O)N1CCC(Nc2cccc(C)c2)CC1,inactive: -0.1%
7,O=c1[nH]c2ccccc2n1C1CCN(C(c2cccc3ccccc23)c2nnnn2C2CCCC2)CC1 (stereo not drawn),inactive: -0.2%
8,O=c1[nH]c2ccccc2n1C1CCN(C(c2ccccc2)c2nnnn2C2CCCCC2)CC1 (stereo not drawn),inactive: -0.4%
9,O=C(NCC1(N2CCCCC2)CCCCC1)c1ccc(F)cc1,inactive: -0.1%
10,CCCCOc1ccc(C(=O)NCC2(N3CCOCC3)CCCCC2)cc1,inactive: 0.6%
11,O=P1(N(CCCl)CCCl)SCCCS1,inactive: 0.3%
12,CCCCn1nnnc1C(c1cc2ccccc2o1)N1CCC(n2c(=O)[nH]c3ccccc32)CC1 (stereo not drawn),inactive: -0.2%
13,CCOC(=O)N1CCC(Nc2ccc(F)cc2)CC1,inactive: 0.2%
14,COc1ccc(NC2CCN(CCc3ccccc3)CC2)c(OC)c1,inactive: -0.1%
15,CC(C)(C)n1nnnc1C(c1ccccc1)N1CCC(n2c(=O)[nH]c3ccccc32)CC1 (stereo not drawn),inactive: -0.2%
16,O=C1CCN(Cc2ccccc2)CC1,inactive: -0.1%
17,CCOc1ccc(C)cc1CN(CCCl)CCCl,inactive: 0.1%
18,O=C(NCC1(N2CCCCC2)CCCCC1)c1ccco1,inactive: 0.1%
19,Cn1c(=O)[nH]cc(N(CCCl)CCCl)c1=O,inactive: 0.3%
20,CN(C)c1ccc(C(=O)NCC2(N3CCCCC3)CCCCC2)cc1,inactive: -0.3%
21,Cc1ccccc1NC1(C#N)CCN(Cc2ccccc2)CC1,inactive: -0.1%
22,CC(C)(C)n1nnnc1C(c1ccnc2ccccc12)N1CCC(n2c(=O)[nH]c3ccccc32)CC1 (stereo not drawn),inactive: 0%

row,Compound,activation
1,COc1ccc(C(c2nnnn2C2CCCCC2)N2CCC(n3c(=O)[nH]c4ccccc43)CC2)cc1 (stereo not drawn),inactive: -0.3%
2,CCN1CCC(Nc2cccc(F)c2)CC1,inactive: 0.1%
3,Cc1ccc(C(=O)NCC2(N3CCCCC3)CCCCC2)o1,inactive: 0.2%
4,Fc1ccccc1NC1CCN(Cc2ccccc2)CC1,inactive: -0.1%
5,Cc1ccc(NC2(C#N)CCN(Cc3ccccc3)CC2)cc1,inactive: 0.1%
6,CC(=O)N(c1ccccc1)C1CCNCC1,inactive: -0.4%
7,COc1cccc(C(c2nnnn2C2CCCCC2)N2CCC(n3c(=O)[nH]c4ccccc43)CC2)c1OC (stereo not drawn),inactive: -0.5%
8,CCC(c1nnnn1C1CCCCC1)N1CCC(n2c(=O)[nH]c3ccccc32)CC1 (stereo not drawn),inactive: 3.4%
9,O=c1[nH]c2ccccc2n1C1CCN(C(c2ccnc3ccccc23)c2nnnn2C2CCCCC2)CC1 (stereo not drawn),inactive: -0.1%
10,COc1cc(OC)cc(C(=O)NCC2(N3CCCCC3)CCCCC2)c1,inactive: 0%
11,CN1CCC(Nc2ccc(Cl)cc2)CC1,inactive: 0.2%
12,COc1cccc(C(=O)N(c2cc(C)cc(C)c2)C2CCN(C(=O)OC(C)(C)C)CC2)c1,inactive: 0.3%
13,COc1cccc(C(c2nnnn2C2CCCC2)N2CCC(n3c(=O)[nH]c4ccccc43)CC2)c1OC (stereo not drawn),inactive: -0.3%
14,COc1cc(OC)cc(C(=O)NCC2(N3CCOCC3)CCCCC2)c1,inactive: -0.1%
15,CCC(CO)(C(=O)OC1CN2CCC1CC2)c1ccccc1 (stereo not drawn),inactive: 0%
16,CC(C)(C)OC(=O)N1CCC(Nc2ccccc2)CC1,inactive: -0.3%
17,NN(c1ccccc1)C1CCN(CCc2ccccc2)CC1,inactive: -0.1%
18,O=C(O)C1(Nc2ccccc2)CCN(Cc2ccccc2)CC1,inactive: 0%
19,CCCOc1ccc(C(=O)NCC2(N(C)C)CCCCC2)cc1,inactive: 0.1%
20,O=c1[nH]c2ccccc2n1C1CCN(C(c2cc3ccccc3o2)c2nnnn2C2CCCC2)CC1 (stereo not drawn),inactive: -0.4%
21,CCOc1ncccc1C(=O)NCC1(N2CCOCC2)CCCCC1,inactive: 0.2%
22,CN1CCC(Nc2ccc(F)c(Cl)c2)CC1,inactive: -0.1%

row,Compound,activation
1,O=C(OC1CN2CCC1CC2)C1c2ccccc2C=Cc2ccccc21 (stereo not drawn),inactive: -0.1%
2,O=c1[nH]c2ccccc2n1C1CCN(C(c2cccs2)c2nnnn2C2CCCC2)CC1 (stereo not drawn),inactive: 0%
3,CCCCn1nnnc1C(c1cccc(OC)c1OC)N1CCC(n2c(=O)[nH]c3ccccc32)CC1 (stereo not drawn),inactive: -0.3%
4,COc1cccc(C(c2nnnn2C(C)(C)C)N2CCC(n3c(=O)[nH]c4ccccc43)CC2)c1OC (stereo not drawn),inactive: -0.1%
5,CCOC(=O)N1CCC(Nc2ccc(C)cc2)CC1,inactive: 0%
6,N/C(=N\O)c1c(N)no[n+]1[O-],inactive: 0.4%
7,O=c1[nH]c2ccccc2n1C1CCN(C(c2cccs2)c2nnnn2C2CCCCC2)CC1 (stereo not drawn),inactive: -0.5%
8,COc1ccc(C(=O)NCC2(N3CCOCC3)CCCCC2)cc1OC,inactive: 0.2%
9,O=c1[nH]c2ccccc2n1C1CCN(C(c2ccnc3ccccc23)c2nnnn2C2CCCC2)CC1 (stereo not drawn),inactive: -0.1%
10,CCCCn1nnnc1C(c1ccccc1)N1CCC(n2c(=O)[nH]c3ccccc32)CC1 (stereo not drawn),inactive: -0.2%
11,COc1cc(C(=O)NCC2(N3CCOCC3)CCCCC2)cc(OC)c1C,inactive: 0.3%
12,O=C(NCC1(N2CCOCC2)CCCCC1)c1cc(Br)ccc1Cl,inactive: 0.2%
13,CC(C)(C)n1nnnc1C(c1cccc2ccccc12)N1CCC(n2c(=O)[nH]c3ccccc32)CC1 (stereo not drawn),inactive: 0.1%
14,CN(C)C1(CNC(=O)c2cccc(C#N)c2)CCCCC1,inactive: 0%
15,c1ccc(CN2CCC(Nc3ccccc3)CC2)cc1,inactive: 0.3%
16,O=c1[nH]c2ccccc2n1C1CCN(C(c2ccccc2)c2nnnn2C2CCCC2)CC1 (stereo not drawn),inactive: -0.2%
17,CCCN1CCC(Nc2cc(OC)cc(OC)c2)CC1,inactive: -0.1%
18,Cc1cc(N(CCCl)CCCl)ccc1C=O,inactive: 0.3%
19,N#Cc1ccc(C(=O)NCC2(N3CCCCC3)CCCCC2)cc1,inactive: -0.1%
20,CC(C)(C)OC(=O)N1CCC(N(C(=O)c2ccccc2)c2ccc(Cl)cc2)CC1,inactive: 0%
